Here are results for 1 molecule from US7812037B2, “Dual antiplatelet/anticoagulant pyridoxine analogs” (Medicure International, Inc., priority 2004, dated 2010).

The target of this test is T1, Human Thrombin (Homo sapiens, UniProt P00734).
T1 construct: Determination of Anti-Thrombin (Factor IIa) Activity; purchased Calbiochem
The test is described as follows: Determination of Anti-Thrombin (Factor IIa) Activity. Format: biochemical. To be noted: competitive inhibition; substrate Pefachrome Thr; pH 8.3. Here is the method:
The test compounds (40 μL) adjusted to various concentrations (0.25 to 100 μM) were incubated with Human Thrombin (Calbiochem) enzyme (5 nM) in 31 mM Tris buffer (pH 8.3) containing 81 mM sodium chloride and 0.63% bovine serum albumin (fraction V)(80 μL) at room temperature for about 30 minutes. 80 μL of Pefachrome® Thr (Pentapharm) was adjusted to various concentrations, from 62.5 μM to 1.25 mM. The activity was measured at about 37° C. by monitoring absorbance at 405 nm for about 15 minutes using a FLUOstar OPTIMA™. Control sample was the solvent alone. Each test compound was analyzed twice using 4 concentrations of compound plus control (in duplicate) with 5 concentrations of substrate (50, 100, 200, 300 and 500 μM). The specific activity (ΔA405/min/nM enzyme) was determined for each data point. The Ki for competitive inhibition was then determined for each test compound using the Enzyme Kinetics module of Sigmaplot 8.0 (SPSS).

In general, Ki refers to a measure of affinity in units of concentration, obtained from inhibition or displacement. Read a low Ki as higher affinity. As to `Cc1ncc(CNc2ccc(C(=N)N)cc2)c(CF)c1OCc1cccc(C(=N)N)c1` [Compound 108, 4-{[4-Fluoromethyl-5-(3-amidine-benzyloxy)-6-methyl-pyridin-3-ylmethyl]-amino}-benzamidine], the Ki came out at 22 nM.
